Experimental data published in US20240165110A1.

Sequences of proteins named here, by UniProt entry; tags and fusion partners are left off.
UniProt P41145, whole entry: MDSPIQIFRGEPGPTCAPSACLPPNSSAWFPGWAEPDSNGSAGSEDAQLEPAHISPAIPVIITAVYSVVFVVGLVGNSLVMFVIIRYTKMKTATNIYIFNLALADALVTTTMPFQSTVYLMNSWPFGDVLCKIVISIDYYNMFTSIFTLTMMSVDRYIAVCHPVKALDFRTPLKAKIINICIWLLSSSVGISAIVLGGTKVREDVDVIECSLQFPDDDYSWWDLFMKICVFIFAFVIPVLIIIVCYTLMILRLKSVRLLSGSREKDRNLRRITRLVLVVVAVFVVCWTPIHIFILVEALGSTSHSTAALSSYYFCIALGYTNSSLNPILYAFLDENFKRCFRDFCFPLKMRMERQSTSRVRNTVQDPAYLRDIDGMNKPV

Target: kappa opioid receptor (KOR) (Homo sapiens, UniProt P41145)
Assay: KOR inhibition (inhibitor constant Ki and % inhibition)

Row | Structure (SMILES) | Ki
1 | COC(=O)C(Cc1cccc(OC)c1C)NC(=O)CNCc1ccccc1 (centres unmarked) | 192 nM
2 | COC(=O)C(Cc1cccc(C)c1I)NC(=O)CNCc1ccccc1 (centres unmarked) | 122 nM
